Values quoted from earlier work, collected in patent US11672748B2, “Aqueous hair conditioner compositions containing solubilized anti-dandruff actives” (The Procter & Gamble Company, priority 2020, dated 2023).
In brackets after ≈: the same amount, converted by molar mass.

Conditions: in water

In the case of CC1COCc2cc3c(cc21)C(C)(C)C(C)C3(C)C (stereo not shown) [Galoxolide], the “Solubility in H2O” value is given as 0.294 µg/mL (≈ 1.14 µM).
